Results as given in PubChem BioAssay AID1645856 (Buhrlage Lab, Dana-Farber Cancer Institute and Novartis …, 2021).
The list shows a part of the results, in another mix than the full data. Some tests of the compounds listed are not included; inactive here does not mean inactive elsewhere. Activity calls are given as the source filed them. Cut-off read from the data, not from the text of the source: active = inhibition above about 30%; inactive = the rest.

The chains behind the UniProt entries cited, without tags or fusion partners.
UniProt Q14694, whole entry: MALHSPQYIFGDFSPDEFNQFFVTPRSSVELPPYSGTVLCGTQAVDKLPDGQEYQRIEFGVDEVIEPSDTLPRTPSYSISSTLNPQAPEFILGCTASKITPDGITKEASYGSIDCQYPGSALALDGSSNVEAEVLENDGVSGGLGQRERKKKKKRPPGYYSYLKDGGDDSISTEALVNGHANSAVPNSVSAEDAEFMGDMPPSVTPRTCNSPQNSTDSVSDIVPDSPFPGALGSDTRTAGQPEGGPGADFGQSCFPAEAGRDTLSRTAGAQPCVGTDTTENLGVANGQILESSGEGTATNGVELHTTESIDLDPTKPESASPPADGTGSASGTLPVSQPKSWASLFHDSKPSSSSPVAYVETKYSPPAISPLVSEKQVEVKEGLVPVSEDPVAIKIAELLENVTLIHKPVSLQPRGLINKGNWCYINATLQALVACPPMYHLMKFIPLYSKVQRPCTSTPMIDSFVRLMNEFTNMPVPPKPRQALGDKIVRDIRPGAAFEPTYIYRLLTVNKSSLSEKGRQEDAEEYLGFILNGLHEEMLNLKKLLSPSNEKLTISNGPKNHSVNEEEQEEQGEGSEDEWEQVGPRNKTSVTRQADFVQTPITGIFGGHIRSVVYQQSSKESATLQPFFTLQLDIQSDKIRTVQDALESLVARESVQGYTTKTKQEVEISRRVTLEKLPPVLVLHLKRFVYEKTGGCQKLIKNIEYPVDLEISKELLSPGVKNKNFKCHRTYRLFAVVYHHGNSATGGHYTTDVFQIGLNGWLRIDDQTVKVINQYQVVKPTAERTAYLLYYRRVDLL

target: Ubiquitin carboxyl-terminal hydrolase 10 (Homo sapiens) (UniProt Q14694); experiment: blocks human USP10 ubiquitin-rhodamine cleavage (AID 1645856); conditions: purified USP10, Ub-rhodamine fluorescence, 60 min; at 20 µM; active compounds read high

| Compound | inhibition |
| --- | --- |
| COc1ccc(C(=O)NCC2(N3CCOCC3)CCCCC2)cc1 | inactive: -0.0201% |
| O=C(NCC1(N2CCCCC2)CCCCC1)c1ccc2c(c1)OCCO2 | inactive: -0.44% |
| Cc1c(C(=O)NCC2(N(C)C)CCCCC2)oc2ccc(F)cc12 | inactive: -1.21% |
| COc1cccc(C(=O)NCC2(N3CCCCC3)CCCCC2)c1 | inactive: -3.74% |
| Cc1c(C(=O)NCC2(N(C)C)CCCCC2)oc2ccccc12 | inactive: 2.06% |
| O=C(NCC1(N2CCCCC2)CCCCC1)c1ccc2ccccc2c1 | inactive: -0.014% |
| O=C(NCC1(N2CCOCC2)CCCCC1)c1ccccc1F | inactive: 3.47% |
